scFv variants of Ab-14 (heavy chain) against a SARS-CoV-2 spike peptide

From the AlphaSeq antibody data of Li et al. 2023 (doi:10.1038/s41467-023-39022-2), copy in the FLAb collection.

The target is the same throughout: PDVDLGDISGINAS, from the HR2 region of SARS-CoV-2 spike.

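The starting antibody came from a phage panning campaign against this peptide. Designed CDR sequences, proposed from the first random library and measured here. Several design methods are mixed in this list. Affinity was read by AlphaSeq, a pooled yeast mating assay with surface-displayed partners. The frequency of each diploid, read from paired DNA barcodes, reflects how well the two displayed proteins bind. The ratio of observed to expected reads was calibrated, replicate by replicate, on BCL2-family standards whose Kd was known from biolayer interferometry. The assay was run in six technical replicates.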

The variants keep the light chain, the linker and the frameworks of Ab-14 (scFv order VH, three GGGGS repeats, VL).
VH: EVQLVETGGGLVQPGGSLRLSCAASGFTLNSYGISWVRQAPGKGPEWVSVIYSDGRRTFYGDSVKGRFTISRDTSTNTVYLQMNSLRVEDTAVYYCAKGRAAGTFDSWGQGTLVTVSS
VL: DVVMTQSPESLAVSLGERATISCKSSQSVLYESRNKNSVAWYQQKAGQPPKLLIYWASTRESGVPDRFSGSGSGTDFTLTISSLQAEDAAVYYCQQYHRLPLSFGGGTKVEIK

Each variant is given by its three heavy chain CDRs, as the data file delimits them; those of the parent are GFTLNSYGIS, VIYSDGRRTFYGDSVK, GRAAGTFDS. The Kd shown is the geometric mean over detected replicates; a lower Kd is a better binder. "not detected" marks a missing value. The strain was present, yet no cells mated with the target were sequenced in any replicate, which points to weak or no binding.

CDR-H1	CDR-H2	CDR-H3	Kd	seen in
GFSLNDYGIS	VIYSDGRRTFYGDSVK	GRLAGTFDS	660 pM	6/6
GFTLENYGIS	VIYADGRRTFYGDSVK	GRAAGTFDS	1.5 nM	12/12
GFWLNDYGIS	VIYSDGRRTFYADSVK	GRAAGTFDK	2.3 nM	5/6
GFNLDEYGIS	VIYADGMRTFYSDSVK	GEVAGTFDV	190 pM	6/6
GFDLDEYGIS	VIYADGRRTAYSDSVK	GETAGTFDV	480 pM	6/6
GFDLDEYGIS	VIYADGVRTAYSDSVK	GNVAGTFDQ	810 pM	6/6
GFTINDYGIS	VIYSDGRRTFYGDSVK	GRAAGTFDS	8.3 nM	6/6
GFDLDEYGIS	VIYADGMRTFYADSVK	GNNAGTFDS	340 pM	6/6
GFDLNEYGIS	VIYADGVRTAYIDSVK	GEVAGTFDA	440 pM	6/6
GFTLNQYGIS	VIYSDGRRTFYGDSVK	GRAAITFDS	not detected	0/6
GFDLNSYGIS	VIYSDGRRTFGGDSVK	GRAAGWFNS	not detected	0/6
GFDLNEYGIS	VIYADGQRTAYADSVK	GNTAGTFDT	220 pM	6/6
GFTLNEYGIS	VIYSDGRRTFYGDRVK	GRAAVTFDK	not detected	0/6
GFDLNEYGIS	VIYADGRRTFYADSVK	GEAAGTFLV	1.2 nM	6/6
GFNLDEYGIS	VIYADGRRTAYSDSVK	GNVAGTFDI	240 pM	6/6
GFTLNSYGIS	VIYSDGKRTFYSDNVK	GKAAGTFDS	12 nM	6/6
GFTLNSYGIS	VIYADGRRTFYGDDVK	GKAAGTFDS	2.6 nM	6/6
GFSLDEYGIS	VIYADGRRTFYADDVK	GNVAGTFDS	440 pM	6/6
MFDLNSYGIS	VIYSDGRRTFYGDSVK	GRTAGTFDV	16 nM	4/6
GFDLEDYGIS	VIYADGRRTAYTDSVK	GEAAGTFDS	590 pM	6/6
EFTLESYGIS	VIYADGRRTFYGDSVK	GRAAGTFKS	4.5 nM	3/6
GFTLNSYGIS	VIYADGRRTFYNDSVK	GREAGTFDS	2.1 nM	6/6
GFTLNSYGIS	VIYSDGRRTFYCDSVK	GQLAGTFDT	87 nM	1/6
GFDLNEYGIS	VIYADGKRTAYADDVK	GTNAGTFDV	430 pM	6/6
GFDLNEYGIS	VIYADGMRTAYADTVK	GENAGTFDV	800 pM	6/6
GFTLDSYGIS	VIYSDGRRTFYSDRVK	GRTAGTFDT	1.7 nM	6/6
GFTLNSYGIS	VIYSDGRRTFYGDDVK	GNTAGTFDT	5.1 nM	5/6
GFTLNDYGIS	VIYSDGRRTFYGDSVK	GSLAGTFDS	3.4 nM	6/6
GFDLNEYGIS	VIYADGSRTAYSDSVK	GENAGTFDV	1.7 nM	6/6
GFHLNEYGIS	VIYSDGRRTFYGDAVK	GRAAGTFVS	870 pM	5/6
GFPLNSYGIS	VIYSDGMRTFYKDSVK	GRTAGTFDS	19 nM	5/6
GFDLNEYGIS	VIYADGKRTAYVDSVK	GNVAGTFDQ	3.4 nM	6/6
GFTLNQYGIF	VIYSDGRRTFYSDSVK	GRAAGFFDS	not detected	0/6
GMNIDEYGIS	VIYADGMRTAYSNAVK	GAVGGDTIS	170 nM	1/6
GFDLNEYGIS	VIYADGKRTAYSDSVK	GQNAGTFDL	not detected	0/6
GFTLNSYGIS	VIYADGQRTFYGDSVK	GRAAMTFDS	not detected	0/6
GFDIDEYGIS	VIYADGQRKAYTDNVK	GRSGGMTVA	250 nM	2/6
GFELNSYGIS	VIYSDGRRTFYGDSVK	GVIAGTFDS	770 pM	6/6
GFVLNSYGIS	VIYSDGRRTFYADSVK	GEAAGTFDS	19 nM	6/6
GFDLNEYGIS	VIYADGVRKYYADDVK	GNVAGTFDV	190 pM	6/6
GFTLDMYGIS	VIYSDGRRTFYGDSVK	GRTAGTFDS	3.8 nM	4/6
GFTLNSYGIS	VIYSDGRRTFYGDDVK	GRTAGTFDS	28 nM	4/6
GFDLEEYGIS	VIYADGMRTAYTDSVK	GNVAGTFDV	320 pM	6/6
GFDLEDYGIS	VIYADGRRTQYADSVK	GEAAGTFDL	650 pM	5/6
GFNINSQGIS	VIYSDGRRTFYGDSVK	GRAAGTFDS	140 nM	2/6
GFDLNEYGIS	VIYADGMRTAYSDSVK	GTNAGTFDL	9.6 nM	2/6
GFDLNEYGIS	VIYADGMRTVYADDVK	GENAGTFDI	630 pM	6/6
GFDLNEYGIS	VIYADGMRTAYSDNVK	GQVAGTFDI	220 pM	6/6
GFDLDEYGIS	VIYADGVRTAYSDSVK	GEVAGTFDL	330 pM	6/6
GFTLNDYGIS	VIYSDGRRTFYSDSVK	GKAAGTFIS	not detected	0/6
GFNLDEYGIS	VIYADGRRTAYSDSVK	GEVAGTFDV	460 pM	6/6
GFDLNSYGIS	VIYSDGRRTFYKDSVK	GQTAGTFDS	1.5 nM	6/6
GYTLNSHGIS	VIYSDGRRTFYGDSVK	GRHQGTFDS	not detected	0/6

3 of these entries, quoted again:

{"CDR-H1": "GFDLEDYGIS", "CDR-H2": "VIYADGRRTAYTDSVK", "CDR-H3": "GEAAGTFDS", "Kd": "590 pM", "seen in": "6/6"}
{"CDR-H1": "GFVLNSYGIS", "CDR-H2": "VIYSDGRRTFYADSVK", "CDR-H3": "GEAAGTFDS", "Kd": "19 nM", "seen in": "6/6"}
{"CDR-H1": "GFPLNSYGIS", "CDR-H2": "VIYSDGMRTFYKDSVK", "CDR-H3": "GRTAGTFDS", "Kd": "19 nM", "seen in": "5/6"}

Values of this round are not directly comparable with the first-round values of the same sequences. Three control strains display no target. For all heavy chain designs, 1% of the pairings with them gave a signal, with a median of 120 nM and one signal in twenty below 7.0 nM, so weak values seen in few replicates may be background. Of ten entries with the parent sequence, four were seen in most replicates (averages 2.2 nM to 240 nM), three in one and three in none, so single entries are noisy. The authors' rule: three or more of the six replicates give a measured affinity, fewer mean a poor binder. Some sequences occur more than once in the pool; their replicates are pooled.